Reference: patent US12516130B2, “Single-domain antibody for targeting prostate specific membrane antigen (PSMA)” (NATIONAL INSTITUTE FOR BIOTECHNOLOGY IN THE NEGEV LTD., priority 2019, dated 2026)

Key:
[1] = test system: PC3-PIP and PC3-flu cells; assay: Confocal imaging of NB7cys, DOX and NB7cysDOX internalization; type: cell-based; conditions: 15 min, 1.5 μg/ml DOX or molar equivalent
[2] = test system: PC3-PIP cells; assay: Mitochondrial potential assay (TMRE); type: cell-based; conditions: 24 h, 1.5 μg/ml DOX or equivalent molar amount

B1: NB7cys: NB7 with an added cysteine in the C-terminus (protein)
VHH (part 1 of 2): QVQLQESGGGSVQAGGSLRLSCTAPGYTDSNYYMSWFRQAPGKEREWVAGVNTGRGSTSYADSVKGRFTISQDNAKNTMFLQMNSLKPEDTAIYYCAVAACHFCDSLPKTQDEYILWGQGTQVTVSSAAAYPYDVPDYGS
VHH (part 2 of 2): C
modifications: left off: small tags and cut ends
notes: NB7 with an added cysteine in the C-terminus
cellular distribution in PC3-PIP and PC3-flu cells [1]: accumulated only in PC3-PIP cells
mitochondrial membrane potential (TMRE signal) [2]: did not change the TMRE signal
